The record followed here is ChEMBL document CHEMBL1146682, “Synthesis and SAR of potent EGFR/erbB2 dual inhibitors” (Bioorg Med Chem Lett, 2004).

Protein sequences, listed by entry. Tags and fused reporters are not part of them. Lines headed by an entry give the natural chain unless they say otherwise; changes in a name come on top.
UniProt P04626: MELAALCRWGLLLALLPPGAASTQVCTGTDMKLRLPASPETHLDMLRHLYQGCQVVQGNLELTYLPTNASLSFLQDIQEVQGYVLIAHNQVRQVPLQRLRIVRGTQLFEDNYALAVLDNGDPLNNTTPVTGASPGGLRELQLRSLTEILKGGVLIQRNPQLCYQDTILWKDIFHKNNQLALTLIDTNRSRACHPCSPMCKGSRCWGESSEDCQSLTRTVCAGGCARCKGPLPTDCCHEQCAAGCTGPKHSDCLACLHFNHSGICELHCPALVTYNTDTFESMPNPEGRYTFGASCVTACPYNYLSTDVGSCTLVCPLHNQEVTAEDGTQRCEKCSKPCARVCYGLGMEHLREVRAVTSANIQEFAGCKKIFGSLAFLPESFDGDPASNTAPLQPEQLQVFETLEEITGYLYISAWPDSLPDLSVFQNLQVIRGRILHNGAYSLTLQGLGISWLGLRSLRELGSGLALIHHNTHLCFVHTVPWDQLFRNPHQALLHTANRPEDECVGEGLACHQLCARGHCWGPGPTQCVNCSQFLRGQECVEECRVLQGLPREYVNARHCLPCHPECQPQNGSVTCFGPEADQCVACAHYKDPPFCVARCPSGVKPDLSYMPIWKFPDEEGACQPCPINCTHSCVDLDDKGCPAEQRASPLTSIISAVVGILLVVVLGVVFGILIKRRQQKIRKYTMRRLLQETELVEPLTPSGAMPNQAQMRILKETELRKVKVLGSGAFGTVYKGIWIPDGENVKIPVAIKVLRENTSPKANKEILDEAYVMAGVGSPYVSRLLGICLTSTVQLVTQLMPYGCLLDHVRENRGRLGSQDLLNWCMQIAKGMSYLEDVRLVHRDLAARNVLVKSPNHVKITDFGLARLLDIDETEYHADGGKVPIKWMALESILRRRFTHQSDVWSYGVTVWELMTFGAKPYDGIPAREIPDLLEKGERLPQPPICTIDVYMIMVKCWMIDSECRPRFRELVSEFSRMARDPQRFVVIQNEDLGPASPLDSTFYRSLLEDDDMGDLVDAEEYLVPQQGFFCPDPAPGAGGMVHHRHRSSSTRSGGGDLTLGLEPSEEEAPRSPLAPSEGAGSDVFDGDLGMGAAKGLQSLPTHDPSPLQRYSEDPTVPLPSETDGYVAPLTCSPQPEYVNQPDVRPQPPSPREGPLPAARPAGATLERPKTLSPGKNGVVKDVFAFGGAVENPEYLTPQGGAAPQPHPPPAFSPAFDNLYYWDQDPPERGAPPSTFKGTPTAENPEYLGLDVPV
UniProt P00533: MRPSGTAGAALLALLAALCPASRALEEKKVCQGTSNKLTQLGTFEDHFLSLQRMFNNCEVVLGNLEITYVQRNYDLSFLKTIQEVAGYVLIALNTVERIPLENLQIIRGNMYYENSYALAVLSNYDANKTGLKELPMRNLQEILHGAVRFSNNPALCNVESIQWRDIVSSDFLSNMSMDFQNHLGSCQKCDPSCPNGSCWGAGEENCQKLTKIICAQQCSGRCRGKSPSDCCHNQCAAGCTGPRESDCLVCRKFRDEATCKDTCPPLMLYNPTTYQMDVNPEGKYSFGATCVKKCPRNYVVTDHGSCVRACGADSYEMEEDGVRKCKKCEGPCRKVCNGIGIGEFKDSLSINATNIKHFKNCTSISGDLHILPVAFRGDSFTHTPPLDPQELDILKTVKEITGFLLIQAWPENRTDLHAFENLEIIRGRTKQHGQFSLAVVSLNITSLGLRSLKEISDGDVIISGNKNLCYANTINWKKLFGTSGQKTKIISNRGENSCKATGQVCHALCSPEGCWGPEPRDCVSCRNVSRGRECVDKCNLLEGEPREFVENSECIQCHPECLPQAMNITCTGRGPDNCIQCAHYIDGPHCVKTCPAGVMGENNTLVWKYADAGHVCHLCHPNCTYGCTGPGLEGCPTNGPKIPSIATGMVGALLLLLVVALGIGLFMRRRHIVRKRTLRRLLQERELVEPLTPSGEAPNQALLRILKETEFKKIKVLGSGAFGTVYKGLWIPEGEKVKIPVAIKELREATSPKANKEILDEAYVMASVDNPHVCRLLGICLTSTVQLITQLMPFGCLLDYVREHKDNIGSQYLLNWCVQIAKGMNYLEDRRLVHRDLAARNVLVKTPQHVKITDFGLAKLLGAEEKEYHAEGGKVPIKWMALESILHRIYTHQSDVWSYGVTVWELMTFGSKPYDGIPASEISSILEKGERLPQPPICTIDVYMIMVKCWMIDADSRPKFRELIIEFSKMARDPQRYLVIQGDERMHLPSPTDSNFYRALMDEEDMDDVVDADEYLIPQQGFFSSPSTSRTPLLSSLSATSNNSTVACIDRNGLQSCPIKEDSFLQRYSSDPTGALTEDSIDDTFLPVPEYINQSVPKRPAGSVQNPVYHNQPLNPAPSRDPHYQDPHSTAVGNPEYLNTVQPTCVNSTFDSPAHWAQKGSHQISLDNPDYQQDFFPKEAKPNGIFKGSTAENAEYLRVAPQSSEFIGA

The term IC50 denotes the midpoint of a concentration-inhibition curve. A high value points to lower potency.

This test concerns the target Epidermal growth factor receptor and ErbB2 (HER1 and HER2) (Homo sapiens, UniProt P04626+P00533). Description: In vitro efficacy (average) against HN5 (EGFR) and BT474 (erbB2) tumor cell proliferation. The class given is functional.

Consider `CS(=O)(=O)CCNCCCCOc1ccc2ncnc(Nc3ccc4c(cnn4Cc4cccc(F)c4)c3)c2c1`, for which the IC50 was 0.54 µM.
